The values that follow come from patent US9517279B2, “2-alkoxy-11-hydroxyaporphine derivatives and uses thereof” (The McLean Hospital Corporation, priority 2010, dated 2016).

Chains of the proteins cited; added tags and fusions are not shown.
UniProt P18901, whole entry: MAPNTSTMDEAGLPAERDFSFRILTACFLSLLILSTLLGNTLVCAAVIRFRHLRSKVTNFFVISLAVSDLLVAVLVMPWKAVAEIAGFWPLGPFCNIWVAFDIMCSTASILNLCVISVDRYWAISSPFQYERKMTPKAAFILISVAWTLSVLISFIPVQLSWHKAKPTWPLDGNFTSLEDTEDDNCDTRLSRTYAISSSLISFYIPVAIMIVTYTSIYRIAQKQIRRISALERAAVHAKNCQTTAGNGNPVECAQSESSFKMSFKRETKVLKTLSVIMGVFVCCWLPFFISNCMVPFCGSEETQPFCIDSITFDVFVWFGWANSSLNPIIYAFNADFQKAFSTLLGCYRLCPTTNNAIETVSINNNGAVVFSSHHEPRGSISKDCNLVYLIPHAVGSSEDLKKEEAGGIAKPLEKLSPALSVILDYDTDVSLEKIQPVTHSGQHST

For one assay, the target named is T1, D1^high (Rattus norvegicus, UniProt P18901).
T1 construct: membrane-containing homogenates of rat corpus striatum tissue; from tissue; host or cells: rat corpus striatum
The assay is described as follows: Competitive radioreceptor binding, D1 high-affinity state, rat striatum [3H]SCH23390.

The next assay addresses T2, D1^low (Rattus norvegicus, UniProt P18901).
T2 construct: membrane-containing homogenates of rat corpus striatum tissue; from tissue; host or cells: rat corpus striatum
Description: Competitive radioreceptor binding, D1 low-affinity state, rat striatum [3H]SCH23390.

Consider `CN1CCc2cc(OCCF)cc3c2[C@H]1Cc1cccc(O)c1-3` [11g, R(−)-2-(2-fluoroethoxy)-11-hydroxyaporphine], for which, at D1^high, the “Ki D1^high” value was “No D1^high”. The same compound displayed a Ki on D1^low of 340 ± 44 nM.
